Laboratory results from article PMC10004634 (PLOS ONE, 2023).

Biological target: T1, JAK3(JH1domain-catalytic) (Homo sapiens, UniProt P52333)
T1 construct: JH1domain-catalytic
T1 sequence (P52333 1-1124): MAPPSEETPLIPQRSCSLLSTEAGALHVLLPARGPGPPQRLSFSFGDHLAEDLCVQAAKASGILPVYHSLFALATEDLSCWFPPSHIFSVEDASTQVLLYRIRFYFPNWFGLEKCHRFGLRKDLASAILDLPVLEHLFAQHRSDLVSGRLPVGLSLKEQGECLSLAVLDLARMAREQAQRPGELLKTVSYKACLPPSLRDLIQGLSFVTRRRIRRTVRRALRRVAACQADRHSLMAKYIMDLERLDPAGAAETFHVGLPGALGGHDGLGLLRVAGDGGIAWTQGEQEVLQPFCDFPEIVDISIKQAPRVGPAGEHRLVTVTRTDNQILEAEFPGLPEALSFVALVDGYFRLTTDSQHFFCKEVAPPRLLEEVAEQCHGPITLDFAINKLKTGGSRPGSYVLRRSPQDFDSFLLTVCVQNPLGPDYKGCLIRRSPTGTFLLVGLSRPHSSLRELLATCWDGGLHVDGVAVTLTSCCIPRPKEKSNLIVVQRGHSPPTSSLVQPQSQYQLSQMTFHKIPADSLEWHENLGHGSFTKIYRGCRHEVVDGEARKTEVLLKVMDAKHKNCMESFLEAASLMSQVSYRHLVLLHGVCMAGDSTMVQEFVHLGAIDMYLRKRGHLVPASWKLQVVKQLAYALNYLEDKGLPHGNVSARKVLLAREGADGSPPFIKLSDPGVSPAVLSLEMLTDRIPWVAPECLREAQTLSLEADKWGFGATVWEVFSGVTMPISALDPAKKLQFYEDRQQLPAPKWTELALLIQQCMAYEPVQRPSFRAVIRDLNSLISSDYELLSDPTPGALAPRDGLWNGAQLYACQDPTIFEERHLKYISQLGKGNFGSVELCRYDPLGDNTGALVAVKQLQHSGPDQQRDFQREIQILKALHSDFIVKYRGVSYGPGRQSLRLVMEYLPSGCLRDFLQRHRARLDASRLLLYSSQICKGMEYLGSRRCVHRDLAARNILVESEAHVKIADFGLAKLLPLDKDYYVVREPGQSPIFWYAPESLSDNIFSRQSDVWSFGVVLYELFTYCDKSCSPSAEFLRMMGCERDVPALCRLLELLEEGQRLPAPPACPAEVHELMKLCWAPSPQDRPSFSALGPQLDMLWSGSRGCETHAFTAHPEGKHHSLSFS
Experiment: biochemical
Set-up: KINOMEscan scanMAX competition binding, DNA-tagged kinases, qPCR read-out, percent control at 300 nM

| Structure (SMILES) | Percent control / Ibrutinib (percent of kinase still bound to immobilized ligand, 0.3 µM, binder) [%] | remaining binding at 0.3 µM (read-out: Percent control / Zanubrutinib) [%] |
| --- | --- | --- |
| C=CC(=O)N1CCC[C@@H](n2nc(-c3ccc(Oc4ccccc4)cc3)c3c(N)ncnc32)C1 [Ibrutinib] | 3.7 |  |
| C=CC(=O)N1CCC([C@@H]2CCNc3c(C(N)=O)c(-c4ccc(Oc5ccccc5)cc4)nn32)CC1 [Zanubrutinib] |  | 86 |
